Like-named read-outs stand apart in the source and are kept apart here.
What was measured:
[1] = 7 days
in vivo = settings: mouse

## CCn1cc(C(=O)O)c(=O)c2cnc(N3CCNCC3)nc21 [Compound 1, 5,8-Dihydro-8-ethyl-2-(1-piperazinyl)-5-oxopyrido[2,3-d]pyrimidine-6-carboxylic acid]
[1]; iv, 500 mg/kg
  number of survival/the total number: 6/6
[1]; iv, 1000 mg/kg
  number of survival/the total number: 0/6
[1]; po, 2000 mg/kg
  number of survival/the total number: 6/6
[1]; po, 4000 mg/kg
  number of survival/the total number: 6/6
In vivo; iv
  LD50 at 168 h: 700 mg/kg
In vivo; po
  LD50 at 168 h: > 4000 mg/kg

Source: patent US3962443A, “Antibacterial pharmaceutical compositions and processes for preparation thereof” (Dainippon Pharmaceutical Co., Ltd., priority 1972, dated 1976)
